Data as given in patent US20040122089A1, “Novel eicosanoid analgesics” (priority 2001, published 2004).

By UniProt entry, the sequences of proteins in these tests, tags left out.
UniProt P20272, whole entry: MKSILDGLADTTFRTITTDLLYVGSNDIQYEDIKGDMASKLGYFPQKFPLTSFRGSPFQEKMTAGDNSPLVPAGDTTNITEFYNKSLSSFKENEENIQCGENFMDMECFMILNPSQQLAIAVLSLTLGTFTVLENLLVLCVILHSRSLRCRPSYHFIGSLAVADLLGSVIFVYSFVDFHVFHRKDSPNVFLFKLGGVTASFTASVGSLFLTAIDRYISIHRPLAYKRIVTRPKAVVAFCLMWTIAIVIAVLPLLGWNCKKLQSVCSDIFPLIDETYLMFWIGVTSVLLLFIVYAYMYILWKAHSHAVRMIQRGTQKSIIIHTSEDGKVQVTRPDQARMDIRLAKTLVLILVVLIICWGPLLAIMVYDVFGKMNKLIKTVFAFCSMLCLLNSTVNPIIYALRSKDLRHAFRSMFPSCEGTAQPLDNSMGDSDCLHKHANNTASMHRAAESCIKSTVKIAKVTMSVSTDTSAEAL

What was measured:
CB1 receptors [1] = molecular target: T1, CB1 receptors (Rattus norvegicus, UniProt P20272); assay: CB1 receptor binding, [3H]CP55940, whole rat brain membranes (Example 3); conditions: read-out: CB1 affinity Ki
CB1 receptors [2] = molecular target: T1, CB1 receptors; assay: Agonist-stimulated [35S]GTPγS binding, rat hippocampal membranes

Q: How did the Ki (CB1 receptors [1]) turn out when CCCCC/C=C\C/C=C\C/C=C\C/C=C\CCCC(=O)N[C@H](C)CO [Met-AEA, (R)-1′-Methyl-2′-hydroxy-ethyl-arachidonamide, reference compound] was run?
A: Its Ki is 0.02 µM.

Q: How did the “GTPγS binding (Emax)” value (CB1 receptors [2]) turn out when Cc1c(C(=O)c2cccc3ccccc23)c2cccc3c2n1[C@H](CN1CCOCC1)CO3 [WIN55,212-2, reference compound] was run?
A: The value was 51%.
